## Ab-14 light chain CDR variants: yeast mating affinities

The measurements come from Engelhart et al. 2022 (doi:10.1038/s41597-022-01779-4) through the FLAb antibody collection.

All variants were tested on one target, the spike HR2 peptide PDVDLGDISGINAS (SARS-CoV-2).

Parent scFv Ab-14: VH joined to VL by the linker GGGGSGGGGSGGGGS. Changes lie in the light chain CDRs alone.
VH: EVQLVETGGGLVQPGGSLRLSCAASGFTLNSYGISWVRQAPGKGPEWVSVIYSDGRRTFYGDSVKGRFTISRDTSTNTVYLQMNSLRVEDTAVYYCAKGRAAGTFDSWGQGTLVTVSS
VL: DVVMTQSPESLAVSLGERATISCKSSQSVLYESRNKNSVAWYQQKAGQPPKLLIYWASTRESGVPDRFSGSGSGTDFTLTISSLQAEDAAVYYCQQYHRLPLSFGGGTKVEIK

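The parent was found by panning a naive human phage display library on the peptide. Library AAYL50 holds single substitutions and randomly drawn double and triple substitutions in the CDRs. Affinity was read by AlphaSeq, a pooled yeast mating assay with surface-displayed partners. Mating (16 h, 30 °C) was followed by selection of diploids and sequencing of their barcodes. The ratio of observed to expected reads was calibrated, replicate by replicate, on BCL2-family standards whose Kd was known from biolayer interferometry. The assay was run in three technical replicates.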

The parent's light chain CDRs are KSSQSVLYESRNKNSVA, WASTRES, QQYHRLPLS; each variant's own CDRs replace them letter for letter. Numbers give log10(Kd / nM), so 0 is 1 nM and 3 is 1 µM. Smaller is tighter. Averages over replicates are reported, and they cover detected replicates only. "n.d." means that the variant was in the library but no mating with the target was seen in that replicate; the authors take this as a sign of poor binding, and no number exists. In this assay the parent's reference entry averaged 0.65; its copy inside this library read 1.68. As a blank, each scFv also met three strains without target: over library AAYL50, 18% of these pairings were detected, typically at 4.19 and seldom below 2.99. For each scFv, signals with the empty controls are counted beside the result, with their mean in brackets.

CDR-L1 | CDR-L2 | CDR-L3 | log10 Kd, replicates | mean, log10 nM | control signals
KSSQSVLYESRGKNSVA | WASTFES | QQFHRLPLS | n.d. / 3.67 / n.d. | 3.67 | 1 of 9 (4.16)
KSSQSELYESRNKNSVA | YASTWES | QQYHRLPLS | n.d. / n.d. / n.d. | n.d. | 1 of 9 (3.42)
KSSCSVHYESINKNSVA | WASTRES | QQYHRLPLS | 1.55 / 1.63 / 2.48 | 1.89 | 0 of 9
KSSQSVMYESRNKNSVA | SASTRER | QQYHRLPLS | -0.20 / 0.19 / 0.26 | 0.08 | 6 of 9 (4.65)
KSSQSVLYESRNKNSVA | WASTRLS | QQYHRLRLS | 4.85 / 5.32 / n.d. | 5.09 | 4 of 9 (3.98)
KSSQSVLYESRNKNSRA | WASTRES | QQYHRLPLS | 1.08 / 1.07 / 1.22 | 1.12 | 3 of 9 (5.02)
KSSQSVLYESRNKNLVA | WHSTRES | QPYHRLPLS | n.d. / n.d. / n.d. | n.d. | 4 of 9 (5.01)
KSSQMVMYESRCKNSVA | WASTRES | QQYHRLPLS | 1.74 / 1.43 / 1.31 | 1.49 | 1 of 9 (3.63)
KSSQSVLYESRNKNSVA | WASTRES | QQYHCMPLS | 1.98 / 1.67 / 2.01 | 1.89 | 0 of 9
KSSQSVLCESQNKNSTA | WASTRES | QQYHRLPLS | 3.38 / 3.06 / n.d. | 3.22 | 2 of 9 (3.09)
KSRQSVLPESRNKNSVA | WASCRES | QQYHRLPLS | 1.28 / 1.27 / 1.45 | 1.33 | 0 of 9
KTSQSVWYESRNINSVA | WASTRES | QQYHRLPLS | 0.61 / 0.81 / 0.72 | 0.71 | 3 of 9 (4.12)
KSSQSVLYESRHLNSVA | WASTRES | QLYHRLPLS | 1.27 / 1.27 / 0.83 | 1.12 | 2 of 9 (3.67)
KSSQSALYESRNKNQVA | WASTRES | QQYHRLPLS | 2.36 / 2.11 / 2.24 | 2.24 | 1 of 9 (2.67)
KSSQSVLLYSRNKNSVA | WASTRED | QQYHRLPLS | 0.98 / 1.12 / 0.95 | 1.01 | 4 of 9 (3.54)
KSSQGVLYESRNKNSVA | WALTRES | QQYHRLPLH | n.d. / n.d. / n.d. | n.d. | 0 of 9
KSSQSVLYERRNKNSVA | WASTRES | QQYHTTPLS | n.d. / n.d. / n.d. | n.d. | 1 of 9 (3.07)
KSPQSVLYESRNKNSVA | WASKRES | QQYHKLPLS | 1.11 / 1.12 / 1.19 | 1.14 | 0 of 9
KSSQSVLYESRNKNSVA | WASCREY | QQYHRLPLS | 1.36 / 1.44 / 1.47 | 1.42 | 2 of 9 (4.04)
KGSQSVLYESRNKNSVA | WASTRES | QQYHRKPLS | n.d. / n.d. / n.d. | n.d. | 2 of 9 (4.01)
ASSQSVLYESRSKNSVA | WAMTRES | QQYHRLPLS | 3.21 / n.d. / n.d. | 3.21 | 0 of 9
KSSQSVLYESRNKNIVA | WASTRES | QQYHVRPLS | n.d. / n.d. / n.d. | n.d. | 0 of 9
KSSASVLYESRNKASVA | WASTRES | QQYHRLPCS | 1.14 / 1.42 / 1.59 | 1.38 | 1 of 9 (3.42)
KSSQSVLYESRNKNSVA | WASTRES | QQYCRPPCS | n.d. / n.d. / n.d. | n.d. | 0 of 9
KASQSVLYESRNHNSVA | WASTRES | QQYHRRPLS | n.d. / n.d. / n.d. | n.d. | 0 of 9
KSSESVLYESRNKNSVA | WASTREH | WQYHRLPLS | 0.43 / 0.78 / 0.76 | 0.65 | 0 of 9
KSSQSVLYESRNKKSVA | WASTHES | QQLHRLPLS | n.d. / n.d. / n.d. | n.d. | 3 of 9 (4.18)
KSQQSVLYESRNKNSVA | WASTRFS | QQWHRLPLS | 1.50 / 2.45 / 1.73 | 1.90 | 0 of 9
KSSWSVLFESRNKNSVA | WASTRES | QQYHRLRLS | 0.73 / 0.90 / 0.89 | 0.84 | 3 of 9 (4.66)
KSSQNVLYESRNKASVA | WCSTRES | QQYHRLPLS | 2.63 / 2.59 / 2.59 | 2.60 | 1 of 9 (4.35)
KSSQSVLYEDRNKNSVA | WASTRES | QQYARLYLS | n.d. / 2.99 / 5.31 | 4.15 | 0 of 9
DSSQSVLYYSRNKLSVA | WASTRES | QQYHRLPLS | 6.18 / 4.37 / 3.42 | 4.66 | 2 of 9 (4.05)
NSSQSVLYESRNGNSVA | WASTRES | QQYHRLPLS | 1.42 / 1.47 / 1.94 | 1.61 | 1 of 9 (3.06)
KSLQSVLYESRNKNYVA | WASTRES | QQYHRLPLD | n.d. / n.d. / n.d. | n.d. | 0 of 9
KISQSVLYESRNKNSVA | SASTREN | QQYHRLPLS | -0.65 / -0.20 / -0.50 | -0.45 | 6 of 9 (5.11)
KSFQSVLPESRPKNSVA | WASTRES | QQYHRLPLS | 1.96 / 1.88 / 1.97 | 1.93 | 5 of 9 (5.06)
KSSQSVLYESRNKNSVA | TASTREV | QQVHRLPLS | n.d. / 3.03 / n.d. | 3.03 | 1 of 9 (3.19)
KSSQSVLARSRNKNSVA | WASTRES | QQYHRLPLS | 2.06 / 1.92 / 2.33 | 2.10 | 1 of 9 (5.02)
KSSQSNLYESRNKNSVA | WAWTRES | QQYHYLPLS | n.d. / n.d. / n.d. | n.d. | 0 of 9
KSSQSVLYESRNTNSQA | WASTRES | QQFHRLPLS | n.d. / 5.56 / 5.15 | 5.36 | 4 of 9 (4.43)
KSSQSVLYDSRNKNSLA | WASTRES | QQYHRLVLS | n.d. / n.d. / n.d. | n.d. | 2 of 9 (3.54)
KSSRSVLYENRNKNSVA | WAPTRES | QQYHRLPLS | n.d. / 3.22 / n.d. | 3.22 | 2 of 9 (4.13)
KSSQSVLYESRNKQMVA | WASTRES | QQYHRNPLS | n.d. / n.d. / n.d. | n.d. | 1 of 9 (3.29)
KFSQSVLYESRNKNSVA | WASTRES | QQYHRKPLS | n.d. / n.d. / n.d. | n.d. | 1 of 9 (3.03)
KSSQSVLYESNNKSSVA | WASTDES | QQYHRLPLS | n.d. / n.d. / n.d. | n.d. | 2 of 9 (3.56)
ASSQSVLYISRNKNSVA | WASTRES | QQYVRLPLS | 3.95 / 2.71 / 3.36 | 3.34 | 1 of 9 (4.11)
KHSQSVLYESRNKNSVA | WASTREN | QQYHRLPLS | 1.23 / 1.29 / 1.09 | 1.21 | 0 of 9
KSSQSVLYESLNKNSVA | NASTRES | QQYHRLPLF | 0.29 / 0.57 / 0.33 | 0.40 | 3 of 9 (3.51)
KSSQSVLYESRNKNSVA | WASTRES | QWYHRLPLS | 3.02 / 2.46 / 3.02 | 2.83 | 3 of 9 (4.14)
KSSQSVLYESRNKNSVA | WASTRES | QHKHRLPAS | n.d. / n.d. / n.d. | n.d. | 0 of 9

For reference, 3 entries of the list once more:

CDR-L1,CDR-L2,CDR-L3,"log10 Kd, replicates","mean, log10 nM",control signals
KSSRSVLYENRNKNSVA,WAPTRES,QQYHRLPLS,n.d. / 3.22 / n.d.,3.22,2 of 9 (4.13)
KSSQSVLYESRGKNSVA,WASTFES,QQFHRLPLS,n.d. / 3.67 / n.d.,3.67,1 of 9 (4.16)
KSSQSVLYESNNKSSVA,WASTDES,QQYHRLPLS,n.d. / n.d. / n.d.,n.d.,2 of 9 (3.56)